# Test results published in PubChem BioAssay AID1377 (University of Pittsburgh Molecular Library Screening Center, 2008).
# The list shows a part of the results, in another mix than the full data. Some structures show a salt or complex split into parts, the way the source records it. The source made the active and inactive calls.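 Rule for the calls: active = activation, scaled between plate controls, above about 75% (limit read from the data); inactive = activation under that limit.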
# Experiment: inhibitors of zVAD-triggered necroptosis, primary screen, L929 cells (AID 1377);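 note: 0% = zVAD with DMSO and 100% = DMSO alone without zVAD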
# Settings: ATP luminescence, 24 h, at 10 µM, active compounds read high; with zVAD 60 µM unless noted
row,Structure (SMILES),viability rescue
1,O=C(O)c1cccc(Nc2c([N+](=O)[O-])cc([N+](=O)[O-])cc2[N+](=O)[O-])c1,inactive: -0.47%
2,CC1=NCCc2c1[nH]c1ccccc21.O=[N+]([O-])c1cc([N+](=O)[O-])c(O)c([N+](=O)[O-])c1,inactive: -0.13% [with zVAD 20 µM]
3,Cc1cc(C)cc(OP(C)(=O)Nc2ccc(C)cc2C)c1 (stereo not given),inactive: -0.48%
4,CCOC(=O)c1ccc(NP(C)(=O)Oc2cc(C)cc(C)c2)cc1 (stereo not given),inactive: 1.99%
5,COc1ccccc1OP(C)(=O)Nc1cccc(Br)c1 (stereo not given),inactive: 0.45%
6,COc1cc(C(=O)NCC2(N3CCOCC3)CCCCC2)cc(Cl)c1OC(C)C,inactive: 1.71%
7,Cc1cc(C)cc(OP(C)(=O)Nc2ccccn2)c1 (stereo not given),inactive: 0.37%
8,CP(=O)(Nc1cccc(Br)c1)Oc1ccccc1 (stereo not given),inactive: -0.5%
9,Cc1ccc(C)c(NP(C)(=O)Oc2ccccc2)c1 (stereo not given),inactive: -0.15% [with zVAD 20 µM]
10,O=[N+]([O-])c1cc([N+](=O)[O-])c(-n2nnc3ccccc32)c([N+](=O)[O-])c1,inactive: 2.52%
11,Cc1nc2ccc3ccccc3c2s1.O=[N+]([O-])c1cc([N+](=O)[O-])c(O)c([N+](=O)[O-])c1,inactive: 0.44% [with zVAD 20 µM]
12,CCOC(=O)C(CC)C1=NC(C)(C)Cc2ccccc21.O=[N+]([O-])c1cc([N+](=O)[O-])c(O)c([N+](=O)[O-])c1 (stereo not given),inactive: 0.01%
13,CN(C)C1(CNC(=O)c2ccc(S(C)(=O)=O)cc2)CCCCC1,inactive: -0.05%
14,O=[N+]([O-])c1cc([N+](=O)[O-])c(Nc2nnnn2CCO)c([N+](=O)[O-])c1,inactive: 0.11%
15,CCCOc1ccc(NP(C)(=O)Oc2ccc(Cl)cc2)cc1 (stereo not given),inactive: 1.5%
16,CP(=O)(Nc1ccc(SC(F)(F)F)cc1)Oc1ccccc1 (stereo not given),inactive: 1.02%
17,COc1ccccc1OP(C)(=O)Nc1c(C)cccc1C (stereo not given),inactive: 0.06% [with zVAD 20 µM]
18,CN1CCCCC1COC(=O)C1(O)c2ccccc2CCc2ccccc21 (stereo not given),inactive: -0.26%
19,COc1ccccc1OP(C)(=O)Nc1ccccc1 (stereo not given),inactive: 1.82%
20,CP(=O)(Nc1ccccc1Br)Oc1ccccc1 (stereo not given),inactive: -0.08%
21,CP(=S)(Nn1cnnc1)Oc1ccccc1 (stereo not given),inactive: 0.41%
22,Cc1cc(C)cc(OP(C)(=O)Nc2ccc(SC(F)(F)F)cc2)c1 (stereo not given),inactive: 0.89%

row,Structure (SMILES),viability rescue
1,CP(=O)(NC(=O)Nc1ccccc1)Oc1ccccc1 (stereo not given),inactive: -0.22% [with zVAD 20 µM]
2,CCc1ccc(OP(C)(=O)N2CCN(c3ccc([N+](=O)[O-])cc3)CC2)cc1 (stereo not given),inactive: -0.07%
3,CP(=O)(Oc1ccccc1)OC(c1ccccc1)C(F)(F)F (stereo not given),inactive: -0.05%
4,Cc1cccc(C)c1OP(C)(=O)Nc1ccc(SC(F)(F)F)cc1 (stereo not given),inactive: -0.47% [with zVAD 20 µM]
5,CP(=O)(Nc1ccc(SC(F)(F)F)cc1)Oc1ccc(Cl)cc1 (stereo not given),inactive: 1.77%
6,CP(=O)(Nc1ccccn1)Oc1ccc(Cl)cc1 (stereo not given),inactive: 0.2%
7,CCOP(C)(=S)SCC(=O)NC(C)C(=O)O (stereo not given),inactive: -0.32%
8,CCOC(=O)c1ccc(NP(C)(=O)Oc2ccc(OC)cc2)cc1 (stereo not given),inactive: 2.15%
9,CCN(CC)CCCOC(=O)C(O)(c1ccccc1)c1ccccc1,inactive: -2.12%
10,Cc1cccc(C)c1OP(C)(N)=O (stereo not given),inactive: 2.3%
11,CC(C)(C)c1ccc(OP(C)(=O)Nc2ccc(SC(F)(F)F)cc2)cc1 (stereo not given),inactive: 8.27%
12,O=[N+]([O-])c1ccc2c(c1)C=Nc1ccccc1O2,inactive: -2.03%
13,COc1ccc(OP(C)(=O)Nc2cccc(F)c2)cc1 (stereo not given),inactive: 1.84%
14,COc1ccccc1OP(C)(=O)Nc1cc(Cl)ccc1C (stereo not given),inactive: 0.02%
15,Cc1cc(C)cc(OP(C)(N)=O)c1 (stereo not given),inactive: -0.25%
16,CCOC(=O)c1ccc(NP(C)(=O)Oc2ccccc2)cc1 (stereo not given),inactive: 0.86%
17,Cc1ccc(NP(C)(=O)Oc2ccccc2)c(C)c1 (stereo not given),inactive: -0.15%
18,COc1ccccc1OP(C)(=O)Nc1ccc(C)cc1 (stereo not given),inactive: 4.29%
19,COc1ccc(OP(C)(=O)Nc2ccccc2Br)cc1 (stereo not given),inactive: 1.14%
20,COc1ccccc1OP(C)(=O)Nc1ccc(C)c(C)c1 (stereo not given),inactive: 0.17% [with zVAD 20 µM]
21,Cc1cc(C)cc(OP(C)(=O)Nc2cccc(C(F)(F)F)c2)c1 (stereo not given),inactive: 0.45%
22,CP(=O)(Nc1ccc(Cl)cc1Cl)Oc1ccccc1 (stereo not given),inactive: 0.2%

row,Structure (SMILES),viability rescue
1,CP(=O)(OCCOc1ccccc1)OCCOc1ccccc1,inactive: 0.7%
2,Cc1nc2ccc3ccccc3c2o1.O=[N+]([O-])c1cc([N+](=O)[O-])c(O)c([N+](=O)[O-])c1,inactive: 0.06% [with zVAD 20 µM]
3,CN(C)CCOC(=O)C(O)(c1ccccc1)C1CCCC1 (stereo not given),inactive: -0.3%
4,COc1ccc(OP(C)(=O)Nc2ccccn2)cc1 (stereo not given),inactive: 0.64%
5,COc1ccccc1OP(C)(=O)Nc1ccc(Br)cc1 (stereo not given),inactive: 0.63%
6,CCc1ccc(OP(C)(=O)O)cc1,inactive: -0.21% [with zVAD 20 µM]
7,COc1ccccc1OP(C)(=O)Nc1ccc(C)cc1C (stereo not given),inactive: 0.02% [with zVAD 20 µM]
8,CP(=O)(Nc1ccccn1)Oc1ccccc1 (stereo not given),inactive: -0.14% [with zVAD 20 µM]
9,Cc1c(NP(C)(=O)Oc2ccc(C(C)C)cc2)c(=O)n(-c2ccccc2)n1C (stereo not given),inactive: 0.37% [with zVAD 20 µM]
10,O=[N+]([O-])c1cc([N+](=O)[O-])c(Nc2ccccn2)c([N+](=O)[O-])c1,inactive: 6.18%
11,CCc1ccc(OP(C)(=O)Nc2cccnc2)cc1 (stereo not given),inactive: 0.93%
12,CP(=O)(Oc1ccccc1)N1CCOC1=O (stereo not given),inactive: -0.48% [with zVAD 20 µM]
13,O=C(OCCCN1CCCC1)C(O)(c1ccccc1)C1CCCCC1 (stereo not given),inactive: 1.09%
14,COc1ccccc1OP(C)(=O)Nc1c(C)n(C)n(-c2ccccc2)c1=O (stereo not given),inactive: -0.89% [with zVAD 20 µM]
15,COc1ccc(OP(C)(=O)Nc2ccc(Br)cc2)cc1 (stereo not given),inactive: 1.72%
16,CCN(CC)CC(O)COC(=O)C(O)(c1ccccc1)C1CCCCC1 (stereo not given),inactive: 0.48% [with zVAD 20 µM]
17,CN(C)C(=O)c1c([N+](=O)[O-])cc([N+](=O)[O-])cc1[N+](=O)[O-],inactive: -0.8%
18,CP(=O)(Nc1ccc(Cl)cc1)Oc1ccc(F)cc1 (stereo not given),inactive: 0.04% [with zVAD 20 µM]
19,COc1ccccc1OP(C)(=O)Nc1ccccc1Br (stereo not given),inactive: 0.56%
20,CC(C)(C)c1ccc(OP(C)(=O)O)cc1,inactive: -0.07%
21,CP(=O)(OC12CC3CC(CC(C3)C1)C2)OC12CC3CC(CC(C3)C1)C2,inactive: 1.32%
22,CCOC(=O)c1ccc(NP(C)(=O)Oc2ccc(Cl)cc2)cc1 (stereo not given),inactive: 1.53%

row,Structure (SMILES),viability rescue
1,COc1ccc(NP(C)(=O)Oc2ccccc2OC)cc1 (stereo not given),inactive: -0.1%
2,CN(C)CCOC(=O)C(O)(c1ccccc1)C1CCCCC1 (stereo not given),inactive: -0.17% [with zVAD 20 µM]
3,COc1ccc(OP(C)(=O)Nc2cccc(Br)c2)cc1 (stereo not given),inactive: 0.22% [with zVAD 20 µM]
4,Cc1cc(-c2cccc3ccccc23)c(C)cn1.O=[N+]([O-])c1cc([N+](=O)[O-])c(O)c([N+](=O)[O-])c1,inactive: 0.42%
5,O=[N+]([O-])c1cc([N+](=O)[O-])c(NCC2CCS(=O)(=O)C2)c([N+](=O)[O-])c1 (stereo not given),inactive: 71.8%
6,O=[N+]([O-])c1ccc(OP2(=O)COCCO2)cc1 (stereo not given),inactive: 0.25%
7,CCOP(C)(=S)SCC(=O)NC(C)(CC)C(=O)O (stereo not given),inactive: -0.23% [with zVAD 20 µM]
8,CP(=O)(Nc1ccc(SC(F)(F)F)cc1)Oc1ccc(F)cc1 (stereo not given),inactive: 1.51%
9,Cc1ccccc1NP(C)(=O)Nc1ccccc1C,inactive: 1.62%
10,CP(=O)(Nc1ccc2c(c1)OCCO2)Oc1ccccc1 (stereo not given),inactive: 0.02% [with zVAD 20 µM]
11,CC(C)c1ccc(OP(C)(=O)Nc2ccc(SC(F)(F)F)cc2)cc1 (stereo not given),inactive: 6.74%
12,CP(=O)(Nc1ccccc1F)Oc1ccccc1 (stereo not given),inactive: -0.2% [with zVAD 20 µM]
13,COc1ccc2c(c1O)-c1c(O)c(OC)cc3c1[C@H](C2)[N+](C)(C)CC3.O=[N+]([O-])c1cc([N+](=O)[O-])c([O-])c([N+](=O)[O-])c1[O-],inactive: 0.11%
14,O=C(OCCN1CCN(CCOCc2ccccc2)CC1)C(O)(c1ccccc1)c1ccccc1,inactive: 0.23%
15,O=C(OC1CN2CCC1CC2)c1ccc([N+](=O)[O-])cc1 (stereo not given),inactive: 0.62%
16,COc1ccc(OP(C)(=O)Nc2ccc(SC(F)(F)F)cc2)cc1 (stereo not given),inactive: 3.88%
17,CCCCCOc1ccc(NP(C)(=O)Oc2ccc(Cl)cc2Cl)cc1 (stereo not given),inactive: 1.2%
18,CP(=O)(Nc1ccccc1)Oc1ccc(F)cc1 (stereo not given),inactive: -0.12% [with zVAD 20 µM]
19,CCN(CC)CCCOC(=O)C(O)(c1ccccc1)C1CCCCC1 (stereo not given),inactive: -0.74%
